Assay results published in patent publication US11136312B2, “3,4,5-trisubstituted-1,2,4-triazoles and 3,4,5-trisubstituted-3-thio-1,2,4-triazoles and uses thereof” (Board of Trustees of Southern Illinois University, priority 2017, dated 2021).

Chains of the proteins cited; added tags and fusions are not shown. Lines headed by an entry give the natural chain unless they say otherwise; changes in a name come on top.
UniProt P31391: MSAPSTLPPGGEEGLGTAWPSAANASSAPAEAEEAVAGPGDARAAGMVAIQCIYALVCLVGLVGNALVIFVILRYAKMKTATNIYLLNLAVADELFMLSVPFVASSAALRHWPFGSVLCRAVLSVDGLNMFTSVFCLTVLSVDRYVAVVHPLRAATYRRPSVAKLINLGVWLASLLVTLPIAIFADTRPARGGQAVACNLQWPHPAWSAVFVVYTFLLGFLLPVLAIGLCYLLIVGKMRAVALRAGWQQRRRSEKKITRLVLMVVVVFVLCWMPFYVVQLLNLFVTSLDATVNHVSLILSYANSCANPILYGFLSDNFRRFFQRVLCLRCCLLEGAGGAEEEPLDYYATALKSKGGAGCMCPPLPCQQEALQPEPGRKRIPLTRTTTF

Columns and labels:
[1] = molecular target: human somatostatin receptor SSTR4 (Homo sapiens (Human), UniProt P31391); experiment: Competitive radioligand binding, 125I-Tyr-SRIF 14, membrane preparations; conditions: competitive binding vs 125I-Tyr-SRIF 14, human SSTR4 membranes; read-out: SST4
Method: Respective membrane receptor preparations were prepared in assay buffer (25 mM HEPES, 10 mM MgCl2, 1 mM CaCl2, 0.5% BSA, pH=7.4) at a 1:150 dilution. […] Binding assays were performed in triplicate for each concentration of ligand in a total volume of 200 μL radioligand (25 μL ligand, 25 μL radioligand, 150 μL receptors) and incubated at room temperature for 90 minutes using a shaking table. Binding was terminated by filtration through GF/B glass fiber filters that were presoaked in 0.5% polyethyleneimine for a minimum of 4 hours. Filters were washed 9× with 1000 μL ice cold wash buffer (50 mM Tris-HCl, pH=7.4, 0.2% BSA). Filters were scored, transferred into plastic test tubes and counted in a gamma counter (Wizard2, Perkin-Elmer). Determination of the Ki for each compound was performed using non-linear regression with GraphPad PRISM-5 software (GraphPad Software, Inc., La Jolla, Calif.).

[2] = molecular target: CHO-K1 cells expressing human somatostatin SSTR4 (Homo sapiens (Human), UniProt P31391); experiment: Inhibition of forskolin stimulated cAMP, TR-FRET LANCE assay; format: cell-based; conditions: against 5 μM forskolin
Method: Measurement of forskolin stimulated inhibition of cAMP was performed via time-resolved fluorescence resonance energy transfer (TR-FRET) LANCE assay (AD0262, PerkinElmer Life Science, Inc., Boston Mass.). […] LANCE cAMP assay was performed per manufacture instruction with assessment of respective compound, somatostatin-28 (Sigma-Aldrich Co., St. Louis, Mo.) as control agonist, against 5 μM forskolin, performed in triplicate across concentration curve. […] Data was calculated via GraphPad PRISM-5 software.

Ki [1] | EC50 [2] | SMILES
11.9 nM and 12.8 nM | 16.5 nM and 23.5 nM | c1ccc(Cc2nnc(CCc3c[nH]c4ccccc34)n2CCCc2c[nH]cn2)cc1 [SM-I-26, 3-(2-(4-(3-(1H-Imidazol-4-yl)propyl)-5-benzyl-4H-1,2,4-triazol-3-yl)ethyl)-1H-indole]
3.33 nM | 5.63 nM | COc1ccc(Cc2nnc(Cc3c[nH]c4ccc(OC)cc34)n2CCCc2c[nH]cn2)cc1 [SK-I-56, 3-((4-(3-(1H-imidazol-4-yl)propyl)-5-(4-methoxybenzyl)-4H-1,2,4-triazol-3-yl)methyl)-5-methoxy-1H-indole]
21.5 nM | 17.3 nM | Clc1ccccc1Cc1nnc(CCc2c[nH]c3ccccc23)n1CCCc1c[nH]cn1 [MM-I-17, 3-(2-(4-(3-(1H-Imidazol-4-yl)propyl)-5-(2-chlorobenzyl)-4H-1,2,4-triazol-3-yl)ethyl)-1H-indole]
2.97 nM | 2.8 nM | Fc1ccc2c(Cc3nnc(Cc4ccccc4)n3CCCc3c[nH]cn3)c[nH]c2c1 [MM-I-89, 3-((4-(3-(1H-imidazol-4-yl)propyl)-5-benzyl-4H-1,2,4-triazol-3-yl)methyl)-6-fluoro-1H-indole]
6.98 nM | 22.7 nM | CS(=O)(=O)c1cccc(Cc2nnc(CCc3c[nH]c4ccccc34)n2CCCc2c[nH]cn2)c1 [SM-I-92, 3-(2-(4-(3-(1H-imidazol-4-yl)propyl)-5-(3-(methylsulfonyl)benzyl)-4H-1,2,4-triazol-3-yl)ethyl)-1H-indole]
16.2 nM | 8.81 nM | Fc1cc(F)cc(Cc2nnc(CCc3c[nH]c4ccccc34)n2CCCc2c[nH]cn2)c1 [SM-I-55, 3-(2-(4-(3-(1H-Imidazol-4-yl)propyl)-5-(3,5-difluorobenzyl)-4H-1,2,4-triazol-3-yl)ethyl)-1H-indole]
267 nM |  | COc1ccc(Cc2nnc(CCc3c[nH]c4ccccc34)n2CCCc2c[nH]cn2)cc1 [SM-I-29, 3-(2-(4-(3-(1H-Imidazol-4-yl)propyl)-5-(4-methoxybenzyl)-4H-1,2,4-triazol-3-yl)ethyl)-1H-indole]
0.707 nM | 0.725 nM | Fc1ccc2c(Cc3nnc(Cc4c[nH]c5cc(F)ccc45)n3CCCc3c[nH]cn3)c[nH]c2c1 [SK-I-124, 3,3′-((4-(3-(1H-imidazol-4-yl)propyl)-4H-1,2,4-triazol-3,5-diyl)bis(methylene))bis(6-fluoro-1H-indole)]
1.72 nM | 1.76 nM | Fc1ccc(Cc2nnc(Cc3c[nH]c4ccccc34)n2CCCc2c[nH]cn2)cc1 [SK-I-16, 3-((4-(3-(1H-imidazol-4-yl)propyl)-5-(4-fluorobenzyl)-4H-1,2,4-triazol-3-yl)methyl)-1H-indole]
0.673 nM | 0.249 nM | Fc1ccc2c(Cc3nnc(Cc4cccc(C(F)(F)F)c4)n3CCCc3c[nH]cn3)c[nH]c2c1 [MM-I-87, 3-((4-(3-(1H-imidazol-4-yl)propyl)-5-(3-(trifluoromethyl)benzyl)-4H-1,2,4-triazol-3-yl)methyl)-6-fluoro-1H-indole]
51.7 nM | 17 nM | Clc1cc(Cl)cc(Cc2nnc(CCc3c[nH]c4ccccc34)n2CCCc2c[nH]cn2)c1 [BN-VI-89, 3-(2-(4-(3-(1H-Imidazol-4-yl)propyl)-5-(3,5-dichlorobenzyl)-4H-1,2,4-triazol-3-yl)ethyl)-1H-indole]
5.54 nM | 4.35 nM | Brc1cccc(Cc2nnc(CCc3c[nH]c4ccccc34)n2CCCc2c[nH]cn2)c1 [SM-I-50, 3-(2-(4-(3-(1H-Imidazol-4-yl)propyl)-5-(3-bromobenzyl)-4H-1,2,4-triazol-3-yl)ethyl)-1H-indole]
3.11 nM | 5.97 nM | COc1ccc2[nH]cc(Cc3nnc(Cc4ccccc4)n3CCCc3c[nH]cn3)c2c1 [SK-I-53, 3-((4-(3-(1H-imidazol-4-yl)propyl)-5-benzyl-4H-1,2,4-triazol-3-yl)methyl)-5-methoxy-1H-indole]

More lines, now with the values behind:

SMILES | Ki [1] | EC50 [2]
COc1ccc(Cc2nnc(Cc3c[nH]c4cc(F)ccc34)n2CCCc2c[nH]cn2)cc1 [SK-I-105, 3-((4-(3-(1H-imidazol-4-yl)propyl)-5-(4-methoxybenzyl)-4H-1,2,4-triazol-3-yl)methyl)-6-fluoro-1H-indole] | 5.13 nM | 6.65 nM
O=[N+]([O-])c1cccc(Cc2nnc(CCc3c[nH]c4ccccc34)n2CCCc2c[nH]cn2)c1 [MM-I-43, 3-(2-(4-(3-(1H-Imidazol-4-yl)propyl)-5-(3-nitrobenzyl)-4H-1,2,4-triazol-3-yl)ethyl)-1H-indole] | 36.6 nM | 98.4 nM
Fc1ccc(Cc2nnc(Cc3c[nH]c4cc(F)ccc34)n2CCCc2c[nH]cn2)cc1 [SK-I-91, 3-((4-(3-(1H-imidazol-4-yl)propyl)-5-(4-fluorobenzyl)-4H-1,2,4-triazol-3-yl)methyl)-6-fluoro-1H-indole] | 0.902 nM | 3.17 nM
CC(C)(C)Cc1nnc(Cc2c[nH]c3cc(F)ccc23)n1CCCc1c[nH]cn1 [SK-I-119, 3-((4-(3-(1H-imidazol-4-yl)propyl)-5-neopentyl-4H-1,2,4-triazol-3-yl)methyl)-6-fluoro-1H-indole] | 57 nM | 77.7 nM
CS(=O)(=O)c1cccc(Cc2nnc(Cc3c[nH]c4ccccc34)n2CCCc2c[nH]cn2)c1 [MM-I-72, 3-((4-(3-(1H-imidazol-4-yl)propyl)-5-(3-(methylsulfonyl)benzyl)-4H-1,2,4-triazol-3-yl)methyl)-1H-indole] | 1.02 nM | 3.32 nM
Fc1cccc(Cc2nnc(CCc3c[nH]c4ccccc34)n2CCCc2c[nH]cn2)c1 [SM-I-38, 3-(2-(4-(3-(1H-Imidazol-4-yl)propyl)-5-(3-fluorobenzyl)-4H-1,2,4-triazol-3-yl)ethyl)-1H-indole] | 12.4 nM | 21 nM
N#Cc1cccc(Cc2nnc(CCc3c[nH]c4ccccc34)n2CCCc2c[nH]cn2)c1 [MM-I-63, 3-((4-(3-(1H-imidazol-4-yl)propyl)-5-(2-(1H-indol-3-yl)ethyl)-4H-1,2,4-triazol-3-yl)methyl)benzonitrile] | 30.3 nM | 75.8 nM
Clc1ccc(Cc2nnc(CCc3c[nH]c4ccccc34)n2CCCc2c[nH]cn2)cc1 [BN-VI-62, 3-(2-(4-(3-(1H-Imidazol-4-yl)propyl)-5-(4-chlorobenzyl)-4H-1,2,4-triazol-3-yl)ethyl)-1H-indole] | 47.3 nM and 37.5 nM | 19.3 nM
Clc1cccc(Cc2nnc(CCc3c[nH]c4ccccc34)n2CCCc2c[nH]cn2)c1 [BN-VI-56, 3-(2-(4-(3-(1H-Imidazol-4-yl)propyl)-5-(3-chlorobenzyl)-4H-1,2,4-triazol-3-yl)ethyl)-1H-indole] | 5.09 nM and 7.77 nM | 7.26 nM
COc1ccc(Cc2nnc(Cc3c[nH]c4ccccc34)n2CCCc2c[nH]cn2)cc1 [SK-I-23, 3-((4-(3-(1H-imidazol-4-yl)propyl)-5-(4-methoxybenzyl)-4H-1,2,4-triazol-3-yl)methyl)-1H-indole] | 2.22 nM | 7.27 nM
COc1ccccc1Cc1nnc(CCc2c[nH]c3ccccc23)n1CCCc1c[nH]cn1 [MM-I-21, 3-(2-(4-(3-(1H-Imidazol-4-yl)propyl)-5-(2-methoxybenzyl)-4H-1,2,4-triazol-3-yl)ethyl)-1H-indole] | 39.5 nM | 28.9 nM
c1ccc(-c2ccc(Cc3nnc(CCc4c[nH]c5ccccc45)n3CCCc3c[nH]cn3)cc2)cc1 [MM-I-26, 3-(2-(4-(3-(1H-Imidazol-4-yl)propyl)-5-([1,1′-biphenyl]-4-ylmethyl)-4H-1,2,4-triazol-3-yl)ethyl)-1H-indole] | 945 nM | 
N[C@H](Cc1c[nH]c2ccccc12)c1nnc(Cc2cccc(Cl)c2)n1CCCc1c[nH]cn1 [BN-VI-87, (R)-1-(4-(3-(1H-Imidazol-4-yl)propyl)-5-(3-chlorobenzyl)-4H-1,2,4-triazol-3-yl)-2-(1H-indol-3-yl)ethanamine] | 448 nM | 692 nM
Cn1cc(CCc2nnc(Cc3cccc(C(F)(F)F)c3)n2CCCc2c[nH]cn2)c2ccccc21 [SM-I-76, 3-(2-(4-(3-(1H-imidazol-4-yl)propyl)-5-(3-(trifluoromethyl)benzyl)-4H-1,2,4-triazol-3-yl)ethyl)-1-methyl-1H-indole] | 11 nM | 10.7 nM
FC(F)(F)Oc1cccc(Cc2nnc(CCc3c[nH]c4ccccc34)n2CCCc2c[nH]cn2)c1 [MM-I-36, 3-(2-(4-(3-(1H-imidazol-4-yl)propyl)-5-(3-(trifluoromethoxy)benzyl)-4H-1,2,4-triazol-3-yl)ethyl)-1H-indole] | 14.9 nM | 55 nM
Clc1ccc(Cc2nnc(Cc3c[nH]c4ccccc34)n2CCCc2c[nH]cn2)cc1 [SK-I-22, 3-((4-(3-(1H-imidazol-4-yl)propyl)-5-(4-chlorobenzyl)-4H-1,2,4-triazol-3-yl)methyl)-1H-indole] | 1.42 nM | 1.28 nM
COc1ccc2[nH]cc(Cc3nnc(Cc4cccc(C(F)(F)F)c4)n3CCCc3c[nH]cn3)c2c1 [SK-I-57, 3-((4-(3-(1H-imidazol-4-yl)propyl)-5-(3-(trifluoromethyl)benzyl)-4H-1,2,4-triazol-3-yl)methyl)-5-methoxy-1H-indole] | 1.76 nM | 1 nM

Where “and” joins values, the source holds several entries; their conditions need not be identical. Equal entries are not always repeated.
